The target of test [1] is yeast 20S proteasome (yCP) β5 subunit (ChTL) (Saccharomyces cerevisiae, UniProt P23724+P30656). The test is described as follows: X-ray crystal structure ([…] Å) and ChTL activity inhibition assay of yCP.
Test [2] deals with yeast 20S proteasome (yCP) β2 subunit (TL) (Saccharomyces cerevisiae, UniProt P25043). The test is described as follows: X-ray crystal structure ([…] Å), mM soaking; weaker TL inhibition.

Chains of the proteins cited; added tags and fusions are not shown. Residues count along the entry.
UniProt P23724, 20-241 limits assumed: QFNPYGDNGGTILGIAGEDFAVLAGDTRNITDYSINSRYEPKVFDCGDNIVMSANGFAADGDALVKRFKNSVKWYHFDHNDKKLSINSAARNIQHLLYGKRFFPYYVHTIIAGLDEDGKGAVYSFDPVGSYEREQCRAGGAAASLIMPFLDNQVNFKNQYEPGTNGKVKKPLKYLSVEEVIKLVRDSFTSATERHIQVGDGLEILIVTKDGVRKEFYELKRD
UniProt P30656, 76-287 limits assumed: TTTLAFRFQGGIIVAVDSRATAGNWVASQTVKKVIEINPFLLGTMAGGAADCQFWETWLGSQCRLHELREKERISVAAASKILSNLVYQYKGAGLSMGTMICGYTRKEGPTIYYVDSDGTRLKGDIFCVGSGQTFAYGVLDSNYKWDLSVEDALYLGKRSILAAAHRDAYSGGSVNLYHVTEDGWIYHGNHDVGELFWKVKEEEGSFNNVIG
UniProt P25043, 30-261 limits assumed: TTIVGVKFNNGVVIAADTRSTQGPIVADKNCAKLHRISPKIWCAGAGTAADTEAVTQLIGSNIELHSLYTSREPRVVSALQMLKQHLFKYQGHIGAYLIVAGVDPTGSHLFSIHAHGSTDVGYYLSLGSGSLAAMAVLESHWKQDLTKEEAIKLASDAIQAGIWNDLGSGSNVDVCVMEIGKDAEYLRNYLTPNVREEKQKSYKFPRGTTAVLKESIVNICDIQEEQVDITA

Consider `CC(C)CCCCCCCCCC(=O)N[C@H](C(=O)N[C@H]1C[C@@H](O)CCNC(=O)/C=C/[C@H](C)NC1=O)[C@@H](C)O`, for which the values for the IC50 in test [1] and in test [2] were 0.027 µM and greater than 0.2 µM, respectively.
